# Assay results from patent US20240226357A1, “Sanitization Method for Affinity Chromatography Matrices” (priority 2015, published 2024).
# Where two headings read alike, the source gives them in different places.
# Tested on: Fab
# Settings: Capto L, compared to PBS control
smiles,measurement,setting,value
"OO [5% H2O2, hydrogen peroxide]",Relative remaining SBC (%),"4 h incubation in SIP solution, 10' incubation with Fab sample",104%
same,Relative remaining SBC (%),"24 h incubation in SIP solution, 90' incubation with Fab sample",105%
